Earlier results as cited in US9963485B2, “Cycloheptapeptide agents for treatment of cancer and obesity diseases” (Hong Kong Baptist University, priority 2012, dated 2018).

Tested on: murine P388 leukemia cells
Conditions: read-out: Cytotoxic activity against murine P388 leukemia cells, IC50; literature (Feng et al. 2003); cited from earlier work

In the case of Ternatin, the IC50 is given as 1.63 µM.
